Data reported in patent US7122643B2, “Cytostatic lanthanum compounds” (Faustus Forschungs Cie. Translational Cancer Research GmbH, priority 2001, dated 2006).

System: over 50 human tumour cell lines
Details: 48-h, mean over more than 50 human tumour cell lines

## [tris(1,10-phenantrolin)lanthanum(III)]trithiocyanate
  Mean LC50: 46.9 µg/mL
read-out: Mean LC50
  CC50: 55 µM
